Data on one substance can be found in US10513503B2, “Use of 3-deoxyanthocyanidins for treating occular diseases” (BIOPHYTIS, priority 2015, dated 2019).

In experiment [1] the test system is primary cultures of retinal pigment epithelium (RPE) of adult pigs. Briefly: In vitro assay of the photoprotective activity: phototoxicity induced by A2E and blue light, cell survival. Conditions: 20 μM compound for 48 h, A2E 30 μM, blue light 470 nm 50 min, survival after 24 h; living cells vs control wells without A2E x100; A2E controls without molecule 39.7±3.7. Format: cell-based, pig. Here is the method: A cell model of phototoxicity induced by the association of a treatment by the A2E and of an illumination by blue light on primary cultures of RPE, wherein cell survival was measured, was used. This model uses primary cultures of retinal pigment epithelium of adult pigs.
This model makes it possible in particular to carry out the screening of molecules aimed at the discovery of new candidates for a treatment of the dry form of AMD. […]
The cell cultivated in 96-well plates were treated for 48 hours with the compounds to be tested (in a 5 mM solution in the DMSO) in such a way as to obtain final concentrations of 5 or 20 μM), of which the last 19 hours in the presence of A2E (final concentration 30 μM). […] Cell survival is measured after 24 hours.
Cell survival and death are detected 24 hours after the induction of the phototoxicity by colouration of the cells with Hoechst (a nuclear marker) and with ethidium (a marker of the nuclei of dead cells). Images of each well are acquired on a fluorescent microscope equipped with a motorised stage controlled by the Metamorph software, and cell survival is quantified by a dedicated quantification program. […]

Experiment [2] has as its system RPE cells. Conditions: literature, in words; cited from earlier work.
The subject of experiment [3] is RPE cells. To be noted: literature, in words; cited from earlier work. This is another data set of the same source.

On to peonidin, for which the Cell survival in experiment [1] turned out to be 60.4 ± 8.5%. Also, the “photoprotective effect on the RPE cells” value in the experiment with RPE cells [2] is reported as “Contradicting results”. Besides, the “effectiveness for cell survival of the RPE cells” value in the experiment on RPE cells [3] is recorded as “ineffectiveness”.
